pEC50: −log10 of the molar value.
Target: T1, human GLP2 receptor (Homo sapiens, UniProt O95838)
T1 sequence (O95838 1-553): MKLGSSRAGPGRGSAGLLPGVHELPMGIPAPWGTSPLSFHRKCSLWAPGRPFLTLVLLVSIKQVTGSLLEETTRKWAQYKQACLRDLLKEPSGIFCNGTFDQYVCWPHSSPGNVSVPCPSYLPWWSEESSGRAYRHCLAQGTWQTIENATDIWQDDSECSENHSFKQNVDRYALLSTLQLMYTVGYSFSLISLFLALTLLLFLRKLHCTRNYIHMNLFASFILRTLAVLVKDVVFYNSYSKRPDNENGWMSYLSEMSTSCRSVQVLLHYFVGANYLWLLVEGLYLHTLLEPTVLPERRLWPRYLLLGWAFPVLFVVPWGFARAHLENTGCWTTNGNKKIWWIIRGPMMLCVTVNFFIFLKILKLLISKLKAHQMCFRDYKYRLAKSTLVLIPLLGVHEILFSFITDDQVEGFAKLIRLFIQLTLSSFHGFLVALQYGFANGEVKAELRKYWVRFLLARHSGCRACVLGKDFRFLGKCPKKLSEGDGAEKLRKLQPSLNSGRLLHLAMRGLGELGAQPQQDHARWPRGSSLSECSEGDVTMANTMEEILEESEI
Assay: cAMP accumulation assay (HTRF), functional agonism of human GLP2 receptor in HEK cells;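 further: HEK cells transduced via BacMam to express human GLP2 receptor, agonist-stimulated cAMP measured by HTRF after 45 min at 37 °C in HBSS with 0.5 mM IBMX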

pEC50: 11.80
SMILES: CC[C@H](C)[C@H](NC(=O)[C@H](Cc1ccccc1)NC(=O)[C@H](CC(=O)O)NC(=O)[C@H](CCCNC(=N)N)NC(=O)[C@H](C)NC(=O)[C@H](C)NC(=O)[C@H](CC(C)C)NC(=O)[C@H](CC(N)=O)NC(=O)[C@H](CC(=O)O)NC(=O)[C@H](CC(C)C)NC(=O)[C@@H](NC(=O)[C@@H](NC(=O)[C@H](CC(N)=O)NC(=O)[C@H](CCSC)NC(=O)[C@H](CCC(=O)O)NC(=O)[C@H](CC(=O)O)NC(=O)[C@H](CO)NC(=O)[C@H](Cc1ccccc1)NC(=O)[C@H](CO)NC(=O)CNC(=O)[C@H](CC(=O)O)NC(=O)CNC(=O)[C@@H](N)Cc1c[nH]cn1)[C@@H](C)O)[C@@H](C)CC)C(=O)N[C@@H](CC(N)=O)C(=O)N[C@@H](Cc1c[nH]c2ccccc12)C(=O)N[C@@H](CC(C)C)C(=O)N[C@H](C(=O)N[C@@H](CCC(N)=O)C(=O)N[C@H](C(=O)N[C@@H](CCCCN)C(=O)N[C@H](C(=O)N[C@H](C(=O)N[C@@H](CC(=O)O)C(=O)O)[C@@H](C)O)[C@@H](C)CC)[C@@H](C)O)[C@@H](C)CC [Teduglutide, reference compound]
